The text below walks through data of publication PMC2784894 (Chemistry & biology, 2009).

Test [1] relates to fission yeast actin cytoskeleton. The test can be described thus: fission yeast actin cytoskeleton imaging. To be noted: for effect on filamentous actin structures (GFP-CHD): 30 minutes at 25° C.
The subject of test [2] is formins from evolutionarily diverse organisms including yeast, nematode worm and mice. The experiment in a line: formin-mediated actin assembly in vitro, diverse formins. To be noted: C. elegans CYK-1, S. pombe Cdc12, S. pombe Fus1, S. cerevisae Bni1, M. musculus mDia2.
In test [3] the test system is mDia1(FH1FH2) or mDia2(FH1FH2). The note with it: at a concentration of 10 μM.

With `Cc1[nH]c2ccccc2c1CCNC(=O)c1ccccc1F` [CK-666, reference compound], the “effect on filamentous actin structures (GFP-CHD)” value in test [1] (100 μM) is recorded as “specifically disassembled Arp2/3 complex-dependent actin patches”.

For the compound `O=C1NC(=S)N(c2cccc(Br)c2)C(=O)/C1=C/c1ccco1` [SMIFH2], the “cells with observable actin capping protein-labeled actin patches (Acp2-GFP)” value in test [1] (10 μM SMIFH2, 30 minutes at 25° C) worked out at 100%. Also, the “effect on filamentous actin structures (GFP-CHD)” value in test [1] (25 μM) is “disassembled formin-dependent actin cables and contractile rings, but not actin patches”. Moreover, in test [2], the “actin assembly by evolutionarily diverse formin FH1FH2 constructs” value is listed as “inhibits”. Further, the “inhibition of formin-mediated actin assembly” value in test [3] is “at least 50%”.
